Literature values as cited in patent publication US20170007633A1, “TREATMENT OF NEURODEGENERATIVE AND NEURODEVELOPMENTAL DISEASES BY INHIBITION OF THE a2-Na/K ATPase/a-ADDUCIN COMPLEX” (PRESIDENT AND FELLOWS OF HARVARD COLLEGE, priority 2014, published 2017).

System: ALS
Settings: ALS patients; cited from earlier work

For `Nc1nc2ccc(OC(F)(F)F)cc2s1` [Riluzole], the “increase of patient survival on average” value is listed as 2-3 months.
